Results taken from patent US12138336B2, “Personal care composition comprising water insoluble solid organic compound” (The Procter & Gamble Company, priority 2018, dated 2024).

Experiment: Water solubility at 25° C.
Format: physicochemical
Conditions: first liquid oily compounds

Solubility in H2O: 0.294 µg/mL (≈ 1.14 µM)
Compound: CC1COCc2cc3c(cc21)C(C)(C)C(C)C3(C)C (stereo not shown) [Galoxolide]

Values after ≈ are worked out from the molar mass of the structure shown.
